Earlier results in PMC5514212, “The interactions of metal cations and oxyanions with protein tyrosine phosphatase 1B” (Biometals, 2017).

Target: PTP1B
Settings: ref Huyer et al. [1997]; cited from earlier work

Question: Which Ki does the source give for `[O]=[V]([O-])([O-])[O-]` [vanadate, reference compound] here?
Answer: Its Ki is 380 nM.
